The numbers were not newly measured in publication PMC7792944, “Pharmacological Characterization of µ-Opioid Receptor Agonists with Biased G Protein or β-Arrestin Signaling, and Computational Study of Conformational Changes during Receptor Activation” (Molecules, 2020), which cites them from elsewhere.

For the series, the system named is MOP. To be noted: dissociation from MOP; ref [43]; cited from earlier work.

On to buprenorphine, for which the “residence time, higher than that of TRV130” value is listed as 18 fold.
